The values below come from patent US11918822B2, “Compositions and methods for enhancing the biological response to chemical agents and physical stimuli” (The Research Foundation for the State University of New York, priority 2010, dated 2024).

The assay deals with C3H10T1/2 MSC. Kind of assay: Osteoblast marker mRNA (PTHR1, osteocalcin) in MSC after adipogenic culture, real-time RT-PCR. Format: cell-based. The following applies: 100 ng/nl in multi-potential medium after seven days in adipogenic medium; control and LIV treated cultures. As for the experimental part:
C3H10T1/2 embryonic mesenchymal stem cells were maintained in growth medium (α-MEM, 10% FBS, 100 µg/ml penicillin/streptomycin). Cells were plated at a density of 6,000-10,000 cells per cm^2 in collagen-I coated silicone membrane plates and cultured for two days before loading protocols began. Adipogenic medium included 0.1 μM dexamethasone, 5 μg/ml insulin, and in some cases, 50 μM indomethcin. If noted, MSC wee transfected with siRNA (100 nm) in serum-free OptiMEM overnight before replacing the medium. Multi-potential medium contained 50 μg/ml ascorbic acid, 1 μM β-glycerophosphate, 10 nM dexamethasone, nM all trans-retinoic acid, 5 μg/mi insulin, 0.5 mM 3-isobutyl-1-methylxanthine (IBMX).
Real-time RT-PCR: Total RNA was isolated by using the RNeasy Plus Mini kit (Qiagen). Reverse transcription was performed with 1 μg of RNA in a total volume of 20 μl per reaction. Real time PCR was performed on a BioRad iCycler (Hercules, CA). 25 μl amplification reactions contained primers at 0.5 μM, dNTPs (0.2 mM each) in PCR buffer and 0.03 U Taq polymerase along with SYBR-green (Molecular Probes, Eugene, OR) at 1:150,000. Aliquots of cDNA were diluted 5-5000 fold to generate relative standard curves to which sample cDNA was compared. […]
(Quantitative PCR measures a nucleic acid by following its amplification.)

B1: BMP2: osteogenic factor included in multi-potential medium (protein, UniProt P12643 283-396, looked up)
Bone morphogenetic protein 2: QAKHKQRKRLKSSCKRHPLYVDFSDVGWNDWIVAPPGYHAFYCHGECPFPLADHLNSTNHAIVQTLVNSVNSKIPKACCVPTELSAISMLYLDENEKVVLKNYQDMVVEGCGCR
Regarding B1, the “markers of osteoblast phenotype (PTHR1 and osteocalcin mRNA)” value is “increased both markers of osteoblast phenotype”.
